For assay [1], the system named is phosphorylated Tau (pTau Ser404). Put plainly: Immunofluorescence of p-Tau Ser404 in brain sections. Format: in vivo, mouse. The note with it: hippocampus. The method, then: (§1) Immunofluorescence was performed on the brains of euploid and Ts2Cje mice treated with vehicle, and the Ts2Cje group treated with sitagliptin. Brains were placed in 4% paraformaldehyde for 24 hours. Brains were then fixed over the subsequent 48 hours in a 20% sucrose solution. Brain sections were then cut to a thickness of 15 μm using a cryostat (Leica System) and stored in an aqueous solution of PBS containing 0.02% NaN3 at 4° C. until use. Slices thus obtained were mounted on slides and were blocked and permeabilized by blocking solution (10% of normal goat serum and 0.2% Triton X-100 in TBS) for 2 hours. Subsequently, sections were incubated overnight at 4° C. with the following antibodies: GABA receptor α2 (1:500, Synaptic System, #224-103) and gephyrin (1:250, Synaptic System, #147-111), p-Tau Ser404 (1:500, Abcam, #92676), sintaxin-1 (1:250, Genetex, #GTX113559) and PSD95 (1:250, Abcam, #ab18258), BDNF (1:200, Santa Cruz, sc-546).
The following day, the same slices were incubated with a mix of fluorescent secondary antibodies, to evaluate the co-localization of the two proteins, anti-mouse Alexa Fluor 488 nm for gephyrin and anti-rabbit Alexa Fluor 594 nm for GABA α2 (1:1500, Invitrogen, Carlsbad, California, CA, USA) for 2 hours at room temperature. The slices were then washed again and incubated with DAPI nuclear marker (1:10000, Invitrogen, Carlsbad, California, CA, USA). […]

The subject of assay [2] is sintaxin-1, PSD95 and BDNF. The assay can be described thus: Immunofluorescence of sintaxin-1, PSD95 and BDNF in brain sections. Format: in vivo, mouse. To be noted: hippocampus. The method, then: as §1
The following day, the same slices were incubated with a mix of fluorescent secondary antibodies, to evaluate the co-localization of the two proteins, anti-mouse Alexa Fluor 488 nm for gephyrin and anti-rabbit Alexa Fluor 594 nm for GABA α2 (1:1500, Invitrogen, Carlsbad, California, CA, USA) for 2 hours at room temperature. The slices were then washed again and incubated with DAPI nuclear marker (1:10000, Invitrogen, Carlsbad, California, CA, USA). To subtract the non-specific background signal created by the secondary antibody, some sections were incubated only with the secondary antibody. Finally, the sample was sealed with a cover slip via fluorimount (Sigma-Aldrich, St Louis, MO, USA). The acquisition and analysis of brain sections was carried out using Leica TCS SP5× confocal microscopy and ImageJ analysis software.

We go through 1 compound from patent US12636284B2, “Compositions for use in the prevention and/or treatment of intellectual disability and neurodegenerative diseases in a subject with down syndrome” (UNIVERSITA' DEGLI STUDI DI ROMA “LA SAPIENZA”, priority 2021, dated 2026).

Molecules are shown by their SMILES.

Regarding `N[C@@H](CC(=O)N1CCn2c(nnc2C(F)(F)F)C1)Cc1cc(F)c(F)cc1F` [sitagliptin, (R)-4-oxo-4-[3-(trifluoromethyl)-5,6-dihydro[1,2,4]triazole[4,3-a]pyrazin-7(8H)-yl]-1-(2,4,5-trifluorophenyl)butan-2-amine], the “phosphorylated Tau (Ser404) levels” value in assay [1] is listed as “reduction”. For the same compound, in assay [2], the BDNF levels entry is on record as “increase”, the PSD95 levels result is reported as “increase” and the sintaxin-1 levels result is “increase”.
